Measured values taken from patent publication US9216983B2, “Dihydroorotate dehydrogenase inhibitors with selective anti-malarial activity” (BOARD OF REGENTS, UNIVERSITY OF TEXAS SYSTEM, priority 2007, dated 2015).

Chains of the proteins cited; added tags and fusions are not shown.
UniProt A0A509AEH5, entry or part of it: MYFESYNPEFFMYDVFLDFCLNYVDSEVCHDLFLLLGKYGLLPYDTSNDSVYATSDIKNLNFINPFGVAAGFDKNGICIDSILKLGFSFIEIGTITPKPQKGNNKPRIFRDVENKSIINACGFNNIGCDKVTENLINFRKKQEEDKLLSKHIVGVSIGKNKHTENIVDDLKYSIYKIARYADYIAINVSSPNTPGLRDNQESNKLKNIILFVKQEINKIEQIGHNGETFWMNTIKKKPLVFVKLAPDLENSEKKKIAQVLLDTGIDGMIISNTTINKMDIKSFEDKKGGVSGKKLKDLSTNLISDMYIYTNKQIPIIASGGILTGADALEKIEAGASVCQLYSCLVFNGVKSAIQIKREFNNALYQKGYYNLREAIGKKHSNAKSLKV

Biological target: PbDHODH (Plasmodium berghei, UniProt A0A509AEH5)
Test: DHODH enzyme inhibition assay, PbDHODH
Format: biochemical, P. berghei
Conditions: Table 4, IC50 class
Protocol: Briefly, the assay solution contained 100 mM HEPES, pH 8.0, 150 mM NaCl, 10% glycerol, 0.1% Triton X-100, 20 micro molar COQD (coenzyme QD), 200 micro molar L-dihydroorotate, and 120 micro molar DCIP. Reactions are initiated by addition of enzyme to a final concentration in the range of about […] to about 50 nM while maintaining the temperature of a circulating water bath at 25° C.
Assay solutions were prepared as discussed above, except that DCIP is not present and the solution is depleted of oxygen by the inclusion of an oxidase/reductase system, such as, 0.1 mg/ml of glucose oxidase, 0.02 mg/ml catalase and 50 mM glucose. The data obtained is fitted to equation 1, to determine the IC50 values of the representative compounds.

`Cc1cc(Nc2cccc(Cl)c2)n2ncnc2n1` [drawing 35] was tested, and the IC50 was > 10 µM.
